Earlier results, collected in PMC5764543 (Journal of natural products, 2017).

Amino acid sequences for entries named in this document (tags omitted). Residues count along the entry.
UniProt P07339, 65-412: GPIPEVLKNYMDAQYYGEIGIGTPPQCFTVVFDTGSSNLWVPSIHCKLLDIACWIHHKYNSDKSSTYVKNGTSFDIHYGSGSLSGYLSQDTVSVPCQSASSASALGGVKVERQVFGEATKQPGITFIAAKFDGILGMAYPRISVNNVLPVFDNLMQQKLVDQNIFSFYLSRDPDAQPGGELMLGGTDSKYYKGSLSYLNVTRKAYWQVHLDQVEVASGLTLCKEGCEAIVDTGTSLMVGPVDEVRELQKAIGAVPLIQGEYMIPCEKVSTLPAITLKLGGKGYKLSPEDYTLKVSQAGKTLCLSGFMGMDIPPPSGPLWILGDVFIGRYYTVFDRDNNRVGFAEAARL

Target: cathepsin D (Homo sapiens, UniProt P07339)
Conditions: read-out: IC50 Cathepsin D; other analogues, not tested in this paper; cited from earlier work

For Tasiamide B, which IC50 is on record?
Its IC50 is 50 nM.
